## Measured affinities in a library of Ab-14 light chain variants

Source: Engelhart et al. 2022 (doi:10.1038/s41597-022-01779-4), MIT Lincoln Laboratory and A-Alpha Bio; data file from the FLAb repository.

Binding partner: SARS-CoV-2 spike HR2 peptide, sequence PDVDLGDISGINAS.

Ab-14 is the parent antibody, in scFv form: VH, then a 15-residue (Gly4Ser)3 linker, then VL. The heavy chain is unchanged in all variants.
VH: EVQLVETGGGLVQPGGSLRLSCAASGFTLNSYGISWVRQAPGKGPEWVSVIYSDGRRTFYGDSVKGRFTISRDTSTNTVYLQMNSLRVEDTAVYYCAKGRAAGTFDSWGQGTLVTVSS
VL: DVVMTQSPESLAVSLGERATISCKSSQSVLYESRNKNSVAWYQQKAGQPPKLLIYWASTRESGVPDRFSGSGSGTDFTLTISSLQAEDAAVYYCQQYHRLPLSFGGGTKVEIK

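AAYL50 was designed without a model: most single CDR substitutions and a random sample of double and triple ones. Affinity was read by AlphaSeq, a pooled yeast mating assay with surface-displayed partners. Mating (16 h, 30 °C) was followed by selection of diploids and sequencing of their barcodes. Scores were corrected for input abundance and mapped to Kd with protein pairs of known affinity run in the same pool. There are three technical replicates.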

Variants are written as CDR1, CDR2 and CDR3 of the light chain (limits as in the source). Parent: KSSQSVLYESRNKNSVA, WASTRES, QQYHRLPLS. All variants listed here change Q96 of the VL, counted from its first residue. Kd is apparent (estimated from mating counts) and averaged on the log scale over replicates with a signal. Smaller is tighter. A pair that was not seen in any replicate is written "nd"; this usually means weak binding, but a binder can also be missed. Background: pairings of library AAYL50 with three empty control strains gave a value in 18% of cases (median 15 µM, 5th percentile 970 nM). Values in that range, when seen in few replicates, are hard to tell from nonspecific mating.

| CDR-L1 | CDR-L2 | CDR-L3 | Kd | replicates with signal |
|---|---|---|---|---|
| KSSQSVEYLSRNKNSVA | WASTRES | QMYHRLPLS | 2.4 nM | 3/3 |
| KSSQSVLYESRNKNSVA | WTSTRES | QWYHRLPKS | 620 nM | 3/3 |
| KSTQSMLYESRNKNSVA | WASTRES | QNYHRLPLS | 24 nM | 3/3 |
| KSSQSVLYESRNKNSYA | WASTRES | QPYHRLQLS | 1.2 µM | 1/3 |
| KSSGSVLKESRNKNSVA | WASTRES | QVYHRLPLS | 19 µM | 1/3 |
| KSSFWVLYESRNKNSVA | WASTRES | QLYHRLPLS | nd | 0/3 |
| KSSQSVVYESRNKNSVA | WASTRES | QKYHRLWLS | nd | 0/3 |
| KSSQSVLYESRNKNSVA | WASTREN | QPYHRLELS | nd | 0/3 |
| KSSQSVLYEQRNFNSVA | WASTRES | QTYHRLPLS | 990 nM | 3/3 |
| KSSQSVLYESRNKNSVA | WSSTREW | QWYHRLPLS | 63 µM | 3/3 |
| KSSQSVLYESRMKPSVA | WASTRES | QRYHRLPLS | 110 µM | 3/3 |
| KSSKSVLYESRNKNSVA | WTSTRES | QCYHRLPLS | nd | 0/3 |
| KSSQSVLYESRNDNSVA | WASTRES | QVYFRLPLS | 1.4 µM | 1/3 |
| KSSQSVLHESRNKNSVA | WASTRTS | QVYHRLPLS | 150 nM | 3/3 |
| KSSQSVLYESRRKNSVA | WASTRES | QGYHPLPLS | nd | 0/3 |
| KSSQSVDYESRNKNSVA | WASTRES | QVYHRLPRS | 11 nM | 3/3 |
| KSGQSVLYESRNKNSVA | WASTRES | QEYHRLPLK | nd | 0/3 |
| KSSQSVLYESRGKNSVA | WFSTRES | QEYHRLPLS | 49 µM | 2/3 |
| YISQSVLYESRNKNSVA | WASTRES | QNYHRLPLS | 9.3 nM | 3/3 |
| KVSQSVLYESRNKNSVA | WASTREP | QVYHRLPLS | 9.5 nM | 3/3 |
| KSSQSVLYESRNKNSVA | WASPRES | QVYHRLPLH | nd | 0/3 |
| KSSQSVLYESRFKNTVA | WASTRES | QRYHRLPLS | 45 µM | 1/3 |
| KSGQSVLYESRNKNSVA | WASTRES | QWYHRLPMS | 630 nM | 3/3 |
| KSSQSVLYESRNKNSVA | WLSTRES | QIYHRLPLY | 12 µM | 3/3 |
| KSNQSVLYESRTKNSVA | WASTRES | QPYHRLPLS | nd | 0/3 |
| KSSQSVLYESRNINSVA | WASTRRS | QIYHRLPLS | 2.6 µM | 1/3 |
| KSSQSVLFESRNKNSVA | TASTRES | QMYHRLPLS | 260 nM | 3/3 |
| KSSQSVLYESRNENFVA | WASTRES | QSYHRLPLS | 93 nM | 3/3 |
| KSSQSVLYESRNKNSVA | WASPRES | QACHRLPLS | 7.9 µM | 1/3 |
| KSSQSVLYESRNKNSVA | WASTREW | QLHHRLPLS | 4.7 µM | 2/3 |
| KSSQSVGYESRNKNSVA | WASTDES | QFYHRLPLS | nd | 0/3 |
| KSSQSVLYEERNKNSVA | WASTTES | QGYHRLPLS | 220 nM | 3/3 |
| KSSQSVLYESRNKNSVA | WASTREY | IAYHRLPLS | 3.0 µM | 1/3 |
| KSSQSVLYESRNKNSVA | WASTRES | QEYHRLPGS | nd | 0/3 |
| KSSQSVLYESRNKNSVA | WAWTAES | QNYHRLPLS | 130 µM | 3/3 |
| KSSQQVLYESRNKNSVA | WASTTES | QYYHRLPLS | 23 µM | 1/3 |
| KSSQSVLYESFNKNSVA | WASTRES | QWYHRLPLI | 3.1 µM | 3/3 |
| KSSQSVLYESRNKDSVA | WASTRES | QEYHRLPLS | 1.4 µM | 3/3 |
| KPSQSVLYESRNKNSVA | WPSTRES | QIYHRLPLS | nd | 0/3 |
| KSSNSVLYESRNKNSVA | WASARES | QTYHRLPLS | 2.8 µM | 2/3 |
| KSSQSVLYESRNKNSVA | CARTRES | QKYHRLPLS | 6.4 µM | 1/3 |
| KSSQSVLYMSRNKNSVA | WASTRED | QVYHRLPLS | 750 nM | 1/3 |
| KSSQSVLYESRNKNSVA | WASTRES | QVYVRGPLS | 51 µM | 2/3 |
| KSSQSTLYESRNKNSVA | WASTRES | QKYHRLPLS | 40 µM | 1/3 |
| KSSQSVLYESRNKNSVA | WASTLES | QSYHRFPLS | 720 nM | 3/3 |
| KSSQSVLYESRVKNSVA | WASTRES | QISHRLPLS | 340 nM | 3/3 |

Top 6 of the variants detected in all replicates, tightest first:

{"CDR-L1": "KSSQSVEYLSRNKNSVA", "CDR-L2": "WASTRES", "CDR-L3": "QMYHRLPLS", "Kd": "2.4 nM", "replicates with signal": "3/3"}
{"CDR-L1": "YISQSVLYESRNKNSVA", "CDR-L2": "WASTRES", "CDR-L3": "QNYHRLPLS", "Kd": "9.3 nM", "replicates with signal": "3/3"}
{"CDR-L1": "KVSQSVLYESRNKNSVA", "CDR-L2": "WASTREP", "CDR-L3": "QVYHRLPLS", "Kd": "9.5 nM", "replicates with signal": "3/3"}
{"CDR-L1": "KSSQSVDYESRNKNSVA", "CDR-L2": "WASTRES", "CDR-L3": "QVYHRLPRS", "Kd": "11 nM", "replicates with signal": "3/3"}
{"CDR-L1": "KSTQSMLYESRNKNSVA", "CDR-L2": "WASTRES", "CDR-L3": "QNYHRLPLS", "Kd": "24 nM", "replicates with signal": "3/3"}
{"CDR-L1": "KSSQSVLYESRNENFVA", "CDR-L2": "WASTRES", "CDR-L3": "QSYHRLPLS", "Kd": "93 nM", "replicates with signal": "3/3"}